Screens as filed in PubChem BioAssay.
A selection: hits, their analogues and other compounds. The true share with any hit is near 2.8%.
PglD inh: blocks C. jejuni PglD acetyltransferase activity; AID 602405; 360,000 compounds, 0.098% hits; purified PglD enzyme, DTNB colorimetric CoA detection; inhibition, % at 12.5 µM; in the data active = inhibition above about 16%, passing the limit was not always enough
MITF TRPM1 HTS: MITF TRPM1 promoter activation in melanoma cells | activation, % at 12.5 µM | 300,000 compounds, 0.75% hits | SK-MEL-5 TRPM1-promoter luciferase, 24 h; % of positive control, neutral wells = 0 | AID 588334;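 active = mean activation of at least 80% with every replicate also reaching 80%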;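 also: 0% = neutral control wells and 100% = parthenolide positive control wells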
Wnt bcat act: activators of Wnt/beta-catenin signaling. activation, % at 9.35 µM. Wnt/beta-catenin reporter cell assay, activator, plate reader. 300,000 compounds, 1.2% hits. AID 743398; in the data active = activation above about 30%, passing the limit was not always enough;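 also: 0% = neutral control wells and 100% = positive control wells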
Yeast UUG start: modulators of start codon recognition fidelity in yeast. activity score, % at 18.7 µM. S. cerevisiae UUG-firefly luciferase reporter, luminescence/redox ratio. 350,000 compounds, 0.13% hits;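 active means replicate mean at a twofold rise or more, about +100% in these data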;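 further: firefly luciferase made from a UUG start codon reports start codon fidelity; reporter light over untreated wells divided by growth signal over untreated wells; some hits fall short of that in this replicate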
miR122 inh: miR-122 inhibition in Huh7 cells. activation (reporter increase), % at 12.5 µM. AID 602342. Huh7 miR-122 Renilla luciferase sensor, 48 h; neutral wells = 0, positive control = 100. 340,000 compounds, 0.3% hits;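 active = mean replicate activation score at least 90 and every replicate individually at or above 90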;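 also: higher luciferase means less miR-122 activity so hits act as miR-122 inhibitors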
esBAF inh: inhibitors of esBAF chromatin remodeling in mouse ES cells. AID 602393. 350,000 compounds, 2% hits. Bmi1-luciferase knock-in reporter, 24 h; 100% = twice the neutral-well signal. reporter increase, % at 12.5 µM; in the data active = activation above about 40%;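 also: 0% = median of the plate's neutral control wells and 100% = double that signal; a rise in the Bmi1 reporter signal indicates esBAF inhibition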
An asterisk follows results filed as active; nt = not tested or not shown; ! = not active in a repeat; [ ] = another dose, or the depositor's remark.

[1] CCOC(=O)c1ccccc1N
[2] Nc1ccccc1C(=O)OCc1ccc([N+](=O)[O-])cc1
[3] COC(=O)[C@H]1[C@H](CO)[C@H]2Cn3c(ccc(-c4ccccc4F)c3=O)[C@@H]1N2Cc1ccncc1
[4] CCc1ccc(-c2nn(Cc3ccccc3)cc2C=O)cc1
[5] O=Cc1cn(Cc2c(F)cccc2Cl)nc1-c1ccccc1
[6] O=C(Cc1ccccn1)N1CCCCN2[C@H](CO)[C@H](c3ccc(C#Cc4ccccc4)cc3)[C@H]2C1

| assay / compound | 1 | 2 | 3 | 4 | 5 | 6 |
| --- | --- | --- | --- | --- | --- | --- |
| esBAF inh | -8 | 57* | 12 | 67* | -11 | nt |
| PglD inh | 0 | -1 | 2 | -10 | nt | 0 |
| MITF TRPM1 HTS | 4 | 54 | nt | 69 | 21 | nt |
| miR122 inh | -3 | -13 | 0[16.7 µM] | -3 | nt | 1[16.7 µM] |
| Yeast UUG start | -15 | -7 | nt | -8 | nt | 0 |
| Wnt bcat act | -1 | 4 | nt | 14 | -4 | nt |

[7] Cc1ccc(Cn2nc(C(=O)Nc3ccc(Br)cc3)cc2C)cc1
[8] Cc1oc2ccc(OC(=O)N(C)C)cc2c1C(=O)OC(C)C
[9] CCc1ccc(N2C(=O)NC(=O)C(CCc3ccncc3)(CCc3ccncc3)C2=O)cc1
[10] O=C1NC(=O)C(CCc2ccncc2)(Cc2cccc(Cl)c2Cl)C(=O)N1c1ccc(Br)cc1 (centres undefined)
[11] COc1ccc(C#Cc2ccc([C@H]3[C@H]4CN(C(=O)Cc5ccccc5)CCCCN4[C@H]3CO)cc2)cc1
[12] Cn1cc(C(=O)OCC(=O)N2CCCCC2)c2ccccc21

| assay / compound | 7 | 8 | 9 | 10 | 11 | 12 |
| --- | --- | --- | --- | --- | --- | --- |
| esBAF inh | 59* | nt | nt | nt | 12 | 28 |
| PglD inh | 1 | 4 | nt | -2 | -1 | -2 |
| MITF TRPM1 HTS | 38 | nt | 19 | -9 | nt | 9 |
| miR122 inh | -26 | 143* | nt | 491* | -5[16.7 µM] | -3 |
| Yeast UUG start | -16 | -7 | nt | -8 | 18 | -7 |
| Wnt bcat act | 5 | 0 | -2 | -18 | nt | 50* |

[13] Cc1ccc(C(=O)C2CN(C)CC2C(=O)c2ccc(C)cc2)cc1 (centres undefined)
[14] Cc1ccc(C(=O)C2CN3CCC2CC3)cc1 (centres undefined)
[15] CCN(CC)S(=O)(=O)c1ccc(C)c(NCC(=O)Nc2ccc(C#N)c(Cl)c2)c1
[16] COc1cccc(C2C([N+](=O)[O-])=C(N)Oc3c2c(=O)oc2ccccc32)c1 (centres undefined)
[17] COc1ccc(C2c3c(nc(C)[nH]c3=O)Oc3c2c(=O)oc2ccccc32)cc1 (centres undefined)
[18] CN1CCN(c2ccc3c(c2)S(=O)(=O)c2ccccc2C3=O)CC1

| assay / compound | 13 | 14 | 15 | 16 | 17 | 18 |
| --- | --- | --- | --- | --- | --- | --- |
| esBAF inh | 60* | -11 | nt | -1 | nt | -2 |
| PglD inh | 0 | 4 | -6 | -7 | nt | -3 |
| MITF TRPM1 HTS | 13 | -5 | -3 | nt | nt | 93* |
| miR122 inh | -1 | -1 | 119* | -5 | nt | 0 |
| Yeast UUG start | -10 | -8 | -18 | -20 | nt | -20 |
| Wnt bcat act | nt | -3 | -4 | 1 | 36* | 25 |

[19] COC(=O)[C@H]1[C@H](CO)[C@H]2Cn3c(ccc(-c4ccncc4)c3=O)[C@@H]1N2CCc1ccccc1
[20] CNC(C)Cc1ccccc1 (centres undefined)
[21] CC(Cc1ccccc1)/[N+]([O-])=C\c1ccc(C(F)(F)F)cc1 (centres undefined)
[22] O=C(O)[C@H]1[C@H](CO)[C@H]2Cn3c(ccc(-c4ccccc4)c3=O)[C@@H]1N2C(=O)C1CCCCC1
[23] Cc1cccc(N=Nc2ccc(N(C)C)cc2)c1
[24] O=C(Cc1cccnc1)N1CCCCN2[C@@H](CO)[C@@H](c3ccc(C#CC4CC4)cc3)[C@@H]2C1

| assay / compound | 19 | 20 | 21 | 22 | 23 | 24 |
| --- | --- | --- | --- | --- | --- | --- |
| esBAF inh | 0 | 5 | 76* | 2 | 2 | nt |
| PglD inh | 3 | -2 | -4 | -1 | 0 | 4 |
| MITF TRPM1 HTS | nt | 6 | 115* | nt | 56 | nt |
| miR122 inh | nt | -4 | -7 | 8[16.7 µM] | 20 | 6[16.7 µM] |
| Yeast UUG start | nt | -22 | -1 | nt | -17 | 10 |
| Wnt bcat act | nt | 3 | 27 | nt | 49* | nt |

[25] CCOC(=O)c1cc2c(cn1)[nH]c1ccccc12
[26] CN(C)C(=O)Oc1c(Cl)cc(Cl)c2cccnc12
[27] Cc1ccc(N2C(=O)CC(=O)NC2=O)cc1
[28] COc1ccc(N2C(=O)CC(=O)NC2=O)cc1
[29] COC(=O)[C@@H]1[C@@H](CO)[C@@H]2Cn3c(ccc(-c4cncnc4)c3=O)[C@H]1N2S(=O)(=O)c1ccccc1C
[30] CC(C)NC(=O)N1[C@@H]2c3ccc(-c4cccc(C(=O)N(C)C)c4)c(=O)n3C[C@H]1[C@H](CO)[C@H]2C(=O)O

| assay / compound | 25 | 26 | 27 | 28 | 29 | 30 |
| --- | --- | --- | --- | --- | --- | --- |
| esBAF inh | 50* | -8 | -8 | 1 | 1 | -2 |
| PglD inh | 4 | -6 | -1 | 6 | 3 | -2 |
| MITF TRPM1 HTS | 49 | -2 | -1 | nt | nt | nt |
| miR122 inh | 9 | -6 | -51 | 236* | -2[16.7 µM] | nt |
| Yeast UUG start | -7 | -21 | -12 | -18 | nt | nt |
| Wnt bcat act | 9 | 48* | -3 | 3 | nt | nt |

[31] c1ccc(CNC2CCCCCCC2)cc1 (tested in a mixture with another compound)
[32] NNCc1ccccc1
[33] CCOC(=O)[C@@H]1[C@@H]2NC(=O)N(C)[C@@]1(C)Oc1ccccc12
[34] C[C@]12CC[C@H](O)C[C@H]1CC[C@@H]1[C@@H]2C[C@@H](O)[C@]2(C)[C@@H](C3=CC(=O)OC3)CC[C@]12O
[35] CC(=O)OC1CC(OC2C(O)CC(OC3C(O)CC(OC4CCC5(C)C(CCC6C5CC(O)C5(C)C(C7=CC(=O)OC7)CCC65O)C4)OC3C)OC2C)OC(C)C1OC1OC(CO)C(O)C(O)C1O (centres undefined)
[36] COc1ccc(-c2nc3ccccc3n2OC(=O)N(C)C)cc1

| assay / compound | 31 | 32 | 33 | 34 | 35 | 36 |
| --- | --- | --- | --- | --- | --- | --- |
| esBAF inh | nt | 49*! | nt | 4 | -5 | nt |
| PglD inh | nt | -2 | 1 | 2 | 6 | -3 |
| MITF TRPM1 HTS | 14 | 32 | nt | -71 | -69 | 11 |
| miR122 inh | nt | 12 | nt | 21 | 126* | 114* |
| Yeast UUG start | nt | -16 | -14 | -14 | 12 | -5 |
| Wnt bcat act | 3 | 13 | nt | -23 | -22 | 4 |

[37] CN(C)C(=O)On1c(-c2ccccc2)nc2ccc(Cl)cc21
[38] CN(C)CCCN=Cc1c(O)n(CCc2ccc(F)cc2)c(=O)[nH]c1=O
[39] COc1ccc(C(CNC(=O)Cc2ccc(Cl)c(Cl)c2)N2CCCCC2)cc1 (centres undefined)
[40] O=C(Cc1ccc(Cl)c(Cl)c1)NCC1(N2CCOCC2)CCCCC1
[41] O=C(Nc1ccc(Cl)c(Cl)c1)c1ccco1
[42] C=CCNC(=S)Nc1ccc(OC(=O)Nc2ccc(Cl)c(Cl)c2)cc1

| assay / compound | 37 | 38 | 39 | 40 | 41 | 42 |
| --- | --- | --- | --- | --- | --- | --- |
| esBAF inh | nt | -1 | -5 | nt | 60* | -1 |
| PglD inh | nt | 1 | -1 | nt | 3 | 3 |
| MITF TRPM1 HTS | 4 | nt | 15 | 4 | 54 | 1 |
| miR122 inh | 1 | -4 | 11 | nt | 6 | -4 |
| Yeast UUG start | nt | -15 | 0 | nt | -18 | 1 |
| Wnt bcat act | nt | 38* | 2 | 45* | 9 | 2 |

One compound at a time (already shown). Order of screens: esBAF inh	PglD inh	MITF TRPM1 HTS	miR122 inh	Yeast UUG start	Wnt bcat act
O=C(Cc1ccc(Cl)c(Cl)c1)NCC1(N2CCOCC2)CCCCC1 is listed with nt	nt	4	nt	nt	45*
C=CCNC(=S)Nc1ccc(OC(=O)Nc2ccc(Cl)c(Cl)c2)cc1 is listed with -1	3	1	-4	1	2
O=C(Nc1ccc(Cl)c(Cl)c1)c1ccco1 is listed with 60*	3	54	6	-18	9
CN(C)CCCN=Cc1c(O)n(CCc2ccc(F)cc2)c(=O)[nH]c1=O is listed with -1	1	nt	-4	-15	38*

(more compounds)
[43] COC(=O)[C@@H]1[C@@H](CO)[C@@H]2Cn3c(ccc(C4=CCCC4)c3=O)[C@H]1N2CC1CCCCC1
[44] O=c1cc(C2CCNCC2)[nH][nH]1
[45] COc1ccc(-c2ccc([C@H]3[C@H](CO)N4CCCCN(C(=O)Cc5ccccc5)C[C@@H]34)cc2)cc1
[46] CCOC(=O)[C@@H]1[C@@H]2NC(=S)N(C)[C@@]1(C)Oc1ccccc12
[47] Cc1ccc(OCCn2cccc2/C=C2/C(=O)NC(=O)N(Cc3ccco3)C2=O)cc1
[48] CCc1ccc(N2C(=O)NC(=O)/C(=C\c3cccn3CCOc3ccc(C(C)C)cc3)C2=O)cc1
[49] COC(=O)[C@H]1[C@H](CO)[C@H]2Cn3c(ccc(C4=CCCC4)c3=O)[C@@H]1N2C(=O)C1CCCCC1

| assay / compound | 43 | 44 | 45 | 46 | 47 | 48 | 49 |
| --- | --- | --- | --- | --- | --- | --- | --- |
| esBAF inh | 2 | -4 | nt | nt | nt | nt | -1 |
| PglD inh | -1 | 0 | 4 | -3 | nt | 0 | nt |
| MITF TRPM1 HTS | nt | -2 | nt | nt | 27 | 13 | nt |
| miR122 inh | -2[16.7 µM] | 156* | -10[16.7 µM] | nt | nt | -1 | nt |
| Yeast UUG start | 16 | -1 | 5 | 2 | nt | 3 | nt |
| Wnt bcat act | nt | nt | nt | nt | 1 | 34* | nt |
